{"source": "patent US8093262B2", "about": "(priority 2005, dated 2012)", "format_in_all_cases": "in vivo", "key": {"Swiss Webster NIH mice": {"tested_on": "Swiss Webster NIH mice", "assay": "Formalin test for antinociceptive activity (paw licking/biting)", "conditions": "1 mg/kg i.p., single animals", "description": "The formalin test for antinociceptive activity is described in numerous publications, e.g., Hunskaar, S., O. B. Fasmer, and K. Hole, J. Neurosci. […] The formalin test is accepted as an art recognized model of persistent clinical pain.\nMale Swiss Webster NIH mice (20-30 g; Harlan, San Diego, Calif.) were used in the experiments described herein. Food was withdrawn on the day of experiment. Mice were placed in Plexiglass jars for at least 1 hour to accommodate to the environment. Following the accommodation period, mice were weighed and given either a huperzine compound administered intraperitoneal (i.p.) or oral (p.o.), or the appropriate volume of vehicle (10% Tween-80). Fifteen minutes after the i.p. dosing, and 30 minutes after the p.o. dosing mice were injected with formalin (20 μL of 5% formaldehyde solution in saline) into the dorsal surface of the right hind paw. Mice were transferred to the Plexiglass jars and monitored for the amount of time spent licking or biting the injected paw. Periods of licking and biting were recorded in 5 minute intervals for 40 minutes after the formalin injection. All experiments were done in a blinded manner. The early phase (acute) of the formalin response is measured as licking/biting between 0-5 minutes, and the late phase (inflammatory) is measured from 10-40 minutes. Differences between vehicle and drug treated groups are analyzed by one-way analysis of variance (ANOVA).\nFifteen minutes after the i.p. dosing, mice were injected with formalin (20 μL of 5% formaldehyde solution in saline) into the dorsal surface of the right hind paw. Periods of licking and biting were recorded in 5 minute intervals for 40 minutes after the formalin injection as shown below in Tables 1 and 2. All experiments were done according to the art-recognized Anticonvulsant Screening Program of the NINDS at the University of Utah.\nDuration of paw licking in the tables below is expressed in seconds."}, "rats": {"tested_on": "rats", "assay": "Toxicity (TOX) / minimal motor impairment, rats", "conditions": "oral, 1 mg/kg", "description": "Peak anticonvulsant activity was observed one-hour after p.o. administration of 1 mg/kg."}, "mice": {"tested_on": "mice", "assay": "Toxicity model (TOX), rotorod, mice", "conditions": "i.p., 5 mg/kg"}}}
{"smiles": "C/C=C1\\[C@H]2C=C(C)C[C@]1(N)c1ccc(=O)[nH]c1C2", "note": "[Huperzine A]", "values": [{"measurement": "Duration of mice paw licking", "setting": "Swiss Webster NIH mice; 0 min after formalin", "value": 0.00, "unit": "s"}, {"measurement": "Duration of mice paw licking", "setting": "Swiss Webster NIH mice; 5 min", "value": 0.00, "unit": "s"}, {"measurement": "Duration of mice paw licking", "setting": "Swiss Webster NIH mice; 10 min", "value": 0.00, "unit": "s"}, {"measurement": "Duration of mice paw licking", "setting": "Swiss Webster NIH mice; 15 min", "value": 0.00, "unit": "s"}, {"measurement": "Duration of mice paw licking", "setting": "Swiss Webster NIH mice; 20 min", "value": 0.00, "unit": "s"}, {"measurement": "Duration of mice paw licking", "setting": "Swiss Webster NIH mice; 25 min", "value": 0.00, "unit": "s"}, {"measurement": "Duration of mice paw licking", "setting": "Swiss Webster NIH mice; 30 min", "value": 0.00, "unit": "s"}, {"measurement": "Duration of mice paw licking", "setting": "Swiss Webster NIH mice; 35 min", "value": 0.00, "unit": "s"}, {"measurement": "Duration of mice paw licking", "setting": "Swiss Webster NIH mice; 40 min", "value": 0.00, "unit": "s"}, {"measurement": "TOX N/F, time course", "setting": "rats; 0.25 h", "value": "0/4"}, {"measurement": "TOX N/F, time course", "setting": "rats; 0.5 h", "value": "0/4"}, {"measurement": "TOX N/F, time course", "setting": "rats; 1.0 h", "value": "0/4"}, {"measurement": "TOX N/F, time course", "setting": "rats; 2.0 h", "value": "0/4"}, {"measurement": "TOX N/F, time course", "setting": "rats; 4.0 h", "value": "0/4"}, {"measurement": "TOX N/F, time course", "setting": "rats; 6.0 h", "value": "0/4"}, {"measurement": "TOX N/F, time course", "setting": "mice; 0.5 h", "value": "4/4"}, {"measurement": "TOX N/F, time course", "setting": "mice; 1.0 h", "value": "4/4"}, {"measurement": "TOX N/F, time course", "setting": "mice; 2.0 h", "value": "4/4"}, {"measurement": "TOX N/F, time course", "setting": "mice; 4.0 h", "value": "4/4"}, {"measurement": "TOX N/F, time course", "setting": "mice; 6.0 h", "value": "4/4"}]}
